Assay results reported in patent US20160022683A1, “COMBINATIONS OF BRUTON'S TYROSINE KINASE INHIBITORS AND CYP3A4 INHIBITORS” (PHARMACYCLICS LLC, priority 2013, published 2016).
Read-outs that look alike come from different tables or passages of the source.

Settings: Ibrutinib in plasma

In the case of `C=CC(=O)N1CCC[C@@H](n2nc(-c3ccc(Oc4ccccc4)cc3)c3c(N)ncnc32)C1` [Ibrutinib, 1-((R)-3-(4-amino-3-(4-phenoxyphenyl)-1H-pyrazolo[3,4-d]pyrimidin-1-yl)-piperidin-1-yl)prop-2-en-1-one], the λz (Day 1, 120 mg Ibrutinib alone, n=12, geom. mean) is reported as 0.0941 h⁻¹, the λz (Day 1, 120 mg Ibrutinib alone, n=12, mean) is reported as 0.112 h⁻¹ and the λz (Day 1, 120 mg Ibrutinib alone, n=12, median) is reported as 0.0806 h⁻¹. The λz (Day 7, 40 mg Ibrutinib + ketoconazole, geom. mean) was 0.116 h⁻¹, the λz (Day 7, 40 mg Ibrutinib + ketoconazole, mean) was 0.124 h⁻¹ and the λz (Day 7, 40 mg Ibrutinib + ketoconazole, median) was 0.104 h⁻¹.
